Measurements reported in ChEMBL document CHEMBL5725589, “Heterocyclic compounds as PI3K-γ inhibitors” (2018).
pIC50: −log10 of the molar value.

Sequences of proteins named here, by UniProt entry; tags and fusion partners are left off. A change or cut given only in a name is not applied to a line headed by its entry.
UniProt P23458: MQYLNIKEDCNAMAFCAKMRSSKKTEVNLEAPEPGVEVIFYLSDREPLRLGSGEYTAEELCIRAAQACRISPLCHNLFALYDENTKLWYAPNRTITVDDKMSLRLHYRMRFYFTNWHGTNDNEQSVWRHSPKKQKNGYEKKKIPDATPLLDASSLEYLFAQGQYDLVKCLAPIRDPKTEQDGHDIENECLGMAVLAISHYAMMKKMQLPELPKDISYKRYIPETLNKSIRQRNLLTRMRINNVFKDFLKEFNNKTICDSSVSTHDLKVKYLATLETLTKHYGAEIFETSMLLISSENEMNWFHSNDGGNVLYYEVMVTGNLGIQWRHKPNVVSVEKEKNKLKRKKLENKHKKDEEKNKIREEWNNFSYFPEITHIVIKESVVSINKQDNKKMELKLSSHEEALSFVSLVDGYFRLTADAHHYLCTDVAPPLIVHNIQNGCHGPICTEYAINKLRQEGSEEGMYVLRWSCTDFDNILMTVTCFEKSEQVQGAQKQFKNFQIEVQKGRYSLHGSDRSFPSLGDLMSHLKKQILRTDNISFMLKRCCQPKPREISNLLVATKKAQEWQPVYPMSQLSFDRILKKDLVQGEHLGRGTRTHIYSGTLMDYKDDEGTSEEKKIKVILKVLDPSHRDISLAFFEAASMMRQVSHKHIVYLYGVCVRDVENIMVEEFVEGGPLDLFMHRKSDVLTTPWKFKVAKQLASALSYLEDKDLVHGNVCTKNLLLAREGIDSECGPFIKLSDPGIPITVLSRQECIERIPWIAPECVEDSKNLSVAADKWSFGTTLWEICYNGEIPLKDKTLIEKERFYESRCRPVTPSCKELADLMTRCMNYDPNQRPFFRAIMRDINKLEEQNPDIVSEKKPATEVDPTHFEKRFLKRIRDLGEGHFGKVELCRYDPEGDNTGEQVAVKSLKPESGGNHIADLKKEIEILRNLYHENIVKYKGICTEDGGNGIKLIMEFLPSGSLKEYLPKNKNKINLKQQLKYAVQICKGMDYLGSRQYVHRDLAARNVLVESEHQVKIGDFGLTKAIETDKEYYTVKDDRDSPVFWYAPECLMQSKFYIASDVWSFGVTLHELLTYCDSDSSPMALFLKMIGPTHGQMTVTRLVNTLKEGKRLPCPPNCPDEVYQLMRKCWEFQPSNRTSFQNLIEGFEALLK

Target: Tyrosine-protein kinase JAK1 (Homo sapiens, UniProt P23458)
Assay: In Vitro JAK Kinase Assay: Compounds herein were tested for inhibitory activity of JAK targets according to the following in vitro assay described in Park et al., Analytical Biochemistry 1999, 269, 94-104. The catalytic domains of human JAK1 (a.a. 837-1142), JAK2 (a.a. 828-1132) and JAK3 (a.a. 781-1124) were expressed using baculovirus in insect cells and purified. The catalytic activity of JAK1 …

Question: With `CN(C)Cc1cc(F)cc(OC2CCN(CC(CC#N)n3cc(-c4ncnc5[nH]ccc45)cn3)CC2)c1` (stereo unspecified) as the compound, how does the pIC50 read?
Answer: > 7.00
